Measured affinities in a library of Ab-14 light chain variants

Target peptide (SARS-CoV-2 spike, HR2 region): PDVDLGDISGINAS

Parent scFv Ab-14: VH joined to VL by the linker GGGGSGGGGSGGGGS. Changes lie in the light chain CDRs alone.
VH: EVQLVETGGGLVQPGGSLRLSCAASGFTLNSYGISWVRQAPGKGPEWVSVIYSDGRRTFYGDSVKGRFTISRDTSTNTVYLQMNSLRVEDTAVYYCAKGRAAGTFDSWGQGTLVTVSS
VL: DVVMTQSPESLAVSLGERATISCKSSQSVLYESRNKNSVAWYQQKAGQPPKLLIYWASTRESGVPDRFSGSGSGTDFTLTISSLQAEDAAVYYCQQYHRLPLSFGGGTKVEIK

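Phage display of a naive human antibody library on the peptide gave the parent. Designed CDR sequences, proposed from the first random library and measured here. Several design methods are mixed in this list. The scFvs were displayed on barcoded MATa yeast, the peptide on MATalpha yeast. Binding brings cells together so that they mate, and sequencing counts the barcode pairs among the diploids. Each replicate has its own calibration line, from reference interactions of the BCL2 family. Mating was done six times.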

Variants are written as CDR1, CDR2 and CDR3 of the light chain (limits as in the source). Parent: KSSQSVLYESRNKNSVA, WASTRES, QQYHRLPLS. Numbers give log10(Kd / nM), so 0 is 1 nM and 3 is 1 µM. Smaller is tighter. A mean of the replicates is given; it leaves out those without a signal. A pair that was not seen in any replicate is written "not detected"; this usually means weak binding, but a binder can also be missed. As a blank, each scFv also met three strains without target: over all light chain designs, 4% of these pairings were detected, typically at 2.64 and seldom below 1.59.

| mean log10 Kd (nM) | detected | CDR-L1 | CDR-L2 | CDR-L3 |
|---|---|---|---|---|
| 1.34 | 6 of 6 | KSSQSVLWEYRNKNSVA | QASTRES | QQYHRLPLS |
| 0.10 | 6 of 6 | HSSPSVLYESRNKNSVA | NASTRES | QQYHRLPLS |
| 0.08 | 6 of 6 | KLPQSVLYESRNKNSVA | HASTRES | QSYHRLPLS |
| -0.21 | 6 of 6 | KLPQSVLYESRNKNNVA | SASTRES | QQYHRLPLS |
| 0.55 | 6 of 6 | KLYQSELYESRNKNSVA | NASTRMS | QQYHRLPLS |
| not detected | 0 of 6 | KSSQSVLVESVNGTSVA | WASTRES | QQYHRLPLS |
| -0.07 | 6 of 6 | KLSQSWLYESRAKNSVA | GASTRES | QQYHRLPLS |
| 0.20 | 6 of 6 | KLSQSQPYESRNKNSVA | NASTRES | QQYHRLPLS |
| 0.54 | 6 of 6 | KAPQSDWYESRNKNSVA | SASTRSQ | QQYHRLPLQ |
| 2.53 | 6 of 6 | KLSISHQVESINKSNVA | EMVTRES | QQYDRLPLS |
| 1.08 | 6 of 6 | RVQLNSGEIDMHWYNIA | SASIRAD | QQYFRLPIF |
| not detected | 0 of 6 | KLSMSMLMESRNKQSVA | ENSTRES | QHYHRLPLS |
| 0.00 | 6 of 6 | KQSQEKLYESRNKNSVA | DASTRES | QQYHRLPLS |
| 0.29 | 6 of 6 | HISSLTLQGMRQVNSVA | QMTTREN | QQYDRLPLA |
| -0.05 | 6 of 6 | KSSQSVLSEPRNKNSVA | DASTRES | QQYHRLPLS |
| -0.39 | 6 of 6 | KVSQSVLYESRNKNSVA | NASTRES | QQYHRLPLM |
| 1.36 | 6 of 6 | MINMEIGIEDRKWQAVA | SNSVRAS | QQYGRLPFS |
| 1.32 | 6 of 6 | HMLYQFNTGSLRVNNVA | EGATVLD | QQYFRLPIT |
| 3.07 | 6 of 6 | MLSDVTNGMARKHYSVA | DNSTRES | QQYDRLPLS |
| 0.74 | 6 of 6 | LISQSELYEQRNKNSVA | DASQRLS | QQYHRLPLS |
| 3.08 | 4 of 6 | KRSQSVLYESRNKNSVA | WASTRES | QQYHRLPLS |
| 1.19 | 6 of 6 | NLDKHDYESRQMINAIA | DMSTLMA | QQYASLPLH |
| 0.20 | 6 of 6 | KLQQSVEYESRNKNSVA | NASTRMS | QQYHRLPLS |
| not detected | 0 of 6 | HLYFPWQSGQDSMHNVA | NDSTLMT | QHYNRLPLS |
| 0.34 | 6 of 6 | TISGMTNQAMSKHNSVA | NVTMRPE | QQYERLPLS |
| -0.09 | 6 of 6 | KVSQHVLYESRNKNSVA | EASTRES | QQYHRLPLC |
| 0.65 | 6 of 6 | KISQSVMYESRNKNSVA | AASTRES | QQYHRLPLS |
| -0.18 | 6 of 6 | KMSQSALMESRNGNSVA | NASKRES | QQYHRLPLS |
| 2.59 | 4 of 6 | IISQSVLGGYHNKNSVA | QTSERGQ | QMYDRLPLS |
| 0.64 | 6 of 6 | MMSSLMGYESRHINNVA | QTTTRES | QQYDRLPLV |
| 0.73 | 6 of 6 | KLRGSTEYESRNKNSVA | WASTRES | QQYHRLPLS |
| 0.17 | 6 of 6 | KLEQSRDYESRNKNSVA | NASTRES | QQYHRLPLS |
| 0.40 | 6 of 6 | KMQQSYLMESRNCNSVA | NASTRLW | QQYHRLPLS |
| 0.12 | 6 of 6 | RFDAAMPYANSNINSIA | DKAIQAD | QQYNRLPLS |
| 1.06 | 6 of 6 | KSSDSVLYESRNKNSVA | DASTRSS | QQYHRLPLS |
| -0.04 | 6 of 6 | KSSQSQLYESRNFNSVA | GASTRES | QQYHRLPLS |
| 0.75 | 5 of 6 | SFPESLNQQQTNVNAVA | GAQHTAR | QQYGRLPLT |
| 1.63 | 6 of 6 | TISQSTYWETFNRNNVA | QTSTREE | QDYDRLPLS |
| 3.92 | 2 of 6 | KLRDEADGWNRNEWNIA | DADHRGA | QQYSHLPLC |
| 1.90 | 5 of 6 | KLQQFVEYESRWKNSVA | HASTRLS | QQYHRLPLS |
| -0.42 | 6 of 6 | KLSQSVLYEERNKNSVA | NGSTRES | QQYHRLPLS |
| 0.42 | 6 of 6 | MVTQMAMTGMMNKRSVA | NAETREN | QQYHRLPLI |
| -0.12 | 6 of 6 | KYEYSELELSRNSNSVA | NASTREE | QQYHRLPLS |
| -0.12 | 6 of 6 | KVSQSYLYESRNKNSVA | NASTRES | QSYHRLPLS |
| 1.61 | 5 of 6 | MISQMFEGLQTSKNPVA | QVSTREE | QQYHRLPLS |
| 0.12 | 6 of 6 | KIGGTLNQLMTKKNNVA | DLVMREQ | QQYHRLPLS |
| 0.59 | 6 of 6 | MISQVMNTLTRYGNNVA | DLQEREE | QQYFRLPLS |
| 2.13 | 2 of 6 | KMTEQLLNGEREPSNIA | AQNIGSD | QQYHHLPLI |
| 1.24 | 6 of 6 | KVTMYELEMRFNGSAVA | AAEVRAN | QQYWRLPLE |
| 0.12 | 6 of 6 | KSSQSQLYEDRVKNSVA | GASTRES | QQYHRLPLS |
| 0.64 | 6 of 6 | HLEQSELYESRMKNSVA | NASTRES | QQYHRLPLS |
| 1.57 | 6 of 6 | KSSQSVLYESSMKNSVA | WADTRES | QQYHRLPLS |
| 1.04 | 6 of 6 | KMRVSLLQGIYRQDSIA | STDIRVL | QQYHHLPLS |
| -0.06 | 6 of 6 | KMSQSVLMESRNKNSVA | QASTRES | QQYHRLPLS |
| 2.29 | 5 of 6 | KLIQEVSYESRNKNSVA | WASTRES | QQYQRLPLS |

9 of these entries, quoted again:

| CDR-L1 | CDR-L2 | CDR-L3 | mean log10 Kd (nM) | detected |
|---|---|---|---|---|
| KLPQSVLYESRNKNNVA | SASTRES | QQYHRLPLS | -0.21 | 6 of 6 |
| NLDKHDYESRQMINAIA | DMSTLMA | QQYASLPLH | 1.19 | 6 of 6 |
| RVQLNSGEIDMHWYNIA | SASIRAD | QQYFRLPIF | 1.08 | 6 of 6 |
| HSSPSVLYESRNKNSVA | NASTRES | QQYHRLPLS | 0.10 | 6 of 6 |
| MISQMFEGLQTSKNPVA | QVSTREE | QQYHRLPLS | 1.61 | 5 of 6 |
| MISQVMNTLTRYGNNVA | DLQEREE | QQYFRLPLS | 0.59 | 6 of 6 |
| TISQSTYWETFNRNNVA | QTSTREE | QDYDRLPLS | 1.63 | 6 of 6 |
| KMSQSVLMESRNKNSVA | QASTRES | QQYHRLPLS | -0.06 | 6 of 6 |
| KMTEQLLNGEREPSNIA | AQNIGSD | QQYHHLPLI | 2.13 | 2 of 6 |

The parent sequence was in this pool as ten entries: three were never detected, three once, and four in most replicates, with averages from 0.34 to 2.37. A sequence measured in both rounds can read differently, since the two assays cover different ranges. In the paper, a design with two or fewer of six values counts as a poor binder.

The measurements come from Li et al. 2023 (doi:10.1038/s41467-023-39022-2) through the FLAb antibody collection.